Our source for the IC50 values is publication PMC4610231, “Treatment with a novel oleic-acid–dihydroxyamphetamine conjugation ameliorates non-alcoholic fatty liver disease in obese Zucker rats” (Disease Models & Mechanisms, 2015).

Sequences of proteins named here, by UniProt entry; tags and fusion partners are left off. A change or cut given only in a name is not applied to a line headed by its entry.
UniProt Q12809: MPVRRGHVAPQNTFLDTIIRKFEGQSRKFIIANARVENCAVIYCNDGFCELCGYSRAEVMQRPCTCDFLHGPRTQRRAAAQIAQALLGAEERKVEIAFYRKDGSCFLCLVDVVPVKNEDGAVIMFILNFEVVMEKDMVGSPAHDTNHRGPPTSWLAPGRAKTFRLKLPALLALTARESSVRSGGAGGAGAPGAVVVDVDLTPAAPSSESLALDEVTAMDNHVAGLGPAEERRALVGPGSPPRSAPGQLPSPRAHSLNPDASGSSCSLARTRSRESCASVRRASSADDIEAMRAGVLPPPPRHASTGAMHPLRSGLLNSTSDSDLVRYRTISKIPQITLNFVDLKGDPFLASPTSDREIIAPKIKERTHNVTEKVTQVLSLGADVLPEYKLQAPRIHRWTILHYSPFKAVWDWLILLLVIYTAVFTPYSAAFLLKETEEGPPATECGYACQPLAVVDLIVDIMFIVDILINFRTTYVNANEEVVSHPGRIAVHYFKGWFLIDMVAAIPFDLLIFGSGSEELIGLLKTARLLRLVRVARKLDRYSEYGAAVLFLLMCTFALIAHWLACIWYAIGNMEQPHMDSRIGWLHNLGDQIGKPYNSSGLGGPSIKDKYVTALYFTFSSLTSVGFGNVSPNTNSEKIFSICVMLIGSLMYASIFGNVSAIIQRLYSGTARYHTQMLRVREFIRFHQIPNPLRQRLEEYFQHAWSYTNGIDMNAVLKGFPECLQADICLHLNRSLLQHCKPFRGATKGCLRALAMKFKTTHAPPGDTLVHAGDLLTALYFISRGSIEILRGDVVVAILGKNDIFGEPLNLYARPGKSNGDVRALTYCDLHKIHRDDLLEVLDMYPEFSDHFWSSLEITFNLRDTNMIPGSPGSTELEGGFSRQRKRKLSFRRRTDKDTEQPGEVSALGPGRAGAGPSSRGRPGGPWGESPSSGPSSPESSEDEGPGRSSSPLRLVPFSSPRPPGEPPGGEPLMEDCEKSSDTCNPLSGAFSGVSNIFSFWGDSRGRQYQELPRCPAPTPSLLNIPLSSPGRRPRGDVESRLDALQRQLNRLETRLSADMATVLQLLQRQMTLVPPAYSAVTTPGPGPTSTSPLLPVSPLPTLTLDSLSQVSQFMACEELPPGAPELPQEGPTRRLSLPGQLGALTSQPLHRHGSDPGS

This experiment has as its target T1, human ether-à-go-go related gene (hERG) K+ channel (Homo sapiens, UniProt Q12809).
T1 construct: gene KCNH2
Briefly: cell-based.

In general, IC50 refers to the concentration that inhibits the measured activity by half.

`CC(C)COCC(CN(Cc1ccccc1)c1ccccc1)N1CCCC1` (stereo not shown) [bepridil] came in with an IC50 of 2200 nM.
